Among the data in BindingDB's records for PubMed 11454918 are Ki values, retold here.

The chains behind the UniProt entries cited, without tags or fusion partners.
UniProt P23977, whole entry: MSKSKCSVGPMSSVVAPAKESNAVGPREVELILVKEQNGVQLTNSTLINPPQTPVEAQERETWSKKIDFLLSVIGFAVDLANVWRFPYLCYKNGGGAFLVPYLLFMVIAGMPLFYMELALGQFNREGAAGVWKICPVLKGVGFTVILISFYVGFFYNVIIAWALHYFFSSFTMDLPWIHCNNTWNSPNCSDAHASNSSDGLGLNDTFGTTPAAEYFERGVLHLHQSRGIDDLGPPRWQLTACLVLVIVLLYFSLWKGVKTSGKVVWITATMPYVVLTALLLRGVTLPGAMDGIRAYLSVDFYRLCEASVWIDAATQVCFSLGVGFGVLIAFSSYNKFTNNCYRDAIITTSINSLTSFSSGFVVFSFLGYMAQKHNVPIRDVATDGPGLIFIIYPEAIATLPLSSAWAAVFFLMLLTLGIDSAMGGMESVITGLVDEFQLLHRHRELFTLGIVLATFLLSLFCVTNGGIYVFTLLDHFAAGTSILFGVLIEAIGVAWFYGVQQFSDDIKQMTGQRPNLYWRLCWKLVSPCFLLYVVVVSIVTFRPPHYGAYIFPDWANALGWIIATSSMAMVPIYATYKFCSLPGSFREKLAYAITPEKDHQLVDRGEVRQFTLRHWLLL

Bounds are passed on as bounds.

The target of the test is Sodium-dependent dopamine transporter (Rattus norvegicus, UniProt P23977).

As a reminder, the Ki is the equilibrium dissociation constant of an inhibitor or competing ligand from its target. Read a low Ki as a stronger hold on the target. `CN(C)CCCC1(c2ccc(F)cc2)OCc2cc(C#N)ccc21` (stereo unspecified) displayed an inhibition constant (Ki) of over 10 µM.
